Data published in US10945932B2, “Prebiotic oral care compositions containing carboxylic acids” (COLGATE-PALMOLIVE COMPANY, priority 2013, dated 2021).

Key:
Assay type in all cases: cell-based
Streptococcus salivarius = experiment: Metabolic activity, Biolog phenotype microarray; conditions: S salivarius
Description: (§1) The extent of metabolic activity of the tested bacteria in the presence of the above-mentioned acids after 24 hours and 48 hours was investigated through a high throughput phenotype microarray system (PM) for microbial cells (Biolog Inc.). Each PM can contain up to 95 different biochemical compounds (e.g. organic acids) that may act as substrates for bacteria as well as one negative control, not containing the substrates. Microarray plates were used in which the different wells of each plate were pre-loaded (by the manufacturer, Biolog Inc.) with different organic acids to be tested. Each bacterial species was tested using a separate microarray plate. Thus, a single bacterial species was tested with a variety of organic acids on each particular plate. The microarrays are based on redox technology, using cell respiration as a universal reporter. […] The observation of this color change indicates which of the substrates improve the metabolic activity and health of the cells.
(§2) Each bacterial species was collected from blood agar plates (incubated for 48 hours anaerobically at 37° C.) and transferred to an IF-0 Base inoculation fluid (Biolog Inc.), which is a nutritionally poor medium. […] A 1:5 dilution of this suspension was prepared by mixing 3 mL of the 42% transmittance cell suspension with 15 mL of an inoculation fluid (which inoculation fluid was formed by mixing 11.6 mL sterile water, 62.5 mL IF-0 base inoculation fluid and 0.9 mL of the tetrazolium dye “Biolog Redox Dye mix D”), resulting in a final cell density which was equal to 85% transmittance using a BioRad SmartSpec 3000 Photometer. For each of the acids tested, the microarray plate (obtained from the supplier (Biolog Inc.) with acid already present in the relevant wells in powder form) was directly inoculated with 100 μL/well of this 85% transmittance cell suspension.
(§3) All plates were incubated in an anaerobic atmosphere at 37° C. Color changes were measured spectrophotometrically at 492 nm (Thermo Scientific Multiskan Ascent) at 24 hrs and 48 hrs using the same plate at both time points.
(§4) The controls were also carried out three times, as above.

[1] = tested on: Aggregatibacter actinomycetemcomitans; experiment: Metabolic activity, Biolog phenotype microarray; conditions: A actinomycetemcomitans
Description: as §1, §2, §3, §4

Streptococcus sobrinus = experiment: Metabolic activity, Biolog phenotype microarray; conditions: S sobrinus
Description: as §1, §2, §3, §4

Porphyromonas gingivalis = experiment: Metabolic activity, Biolog phenotype microarray; conditions: P gingivalis
Description: as §1, §2, §3, §4

Veillonella parvula = experiment: Metabolic activity, Biolog phenotype microarray; conditions: V parvula
Description: as §1, §2, §3, §4

Actinomyces viscosus = experiment: Metabolic activity, Biolog phenotype microarray; conditions: A viscosus
Description: as §1, §2, §3, §4

Streptococcus mutans = experiment: Metabolic activity, Biolog phenotype microarray; conditions: S mutans
Description: as §1, §2, §3, §4

Capnocytophaga sputigena = experiment: Metabolic activity, Biolog phenotype microarray; conditions: C sputigena
Description: as §1, §2, §3, §4

Streptococcus mitis = experiment: Metabolic activity, Biolog phenotype microarray; conditions: S mitis
Description: as §1, §2, §3, §4

Prevotella intermedia = experiment: Metabolic activity, Biolog phenotype microarray; conditions: P intermedia
Description: as §1, §2, §3, §4

Streptococcus sanguinis = experiment: Metabolic activity, Biolog phenotype microarray; conditions: S sanguinis
Description: as §1, §2, §3, §4

Tannerella forsythia = experiment: Metabolic activity, Biolog phenotype microarray; conditions: T forsythia
Description: as §1, §2, §3, §4

Actinomyces naeslundii = experiment: Metabolic activity, Biolog phenotype microarray; conditions: A naeslundii
Description: as §1, §2, §3, §4

Streptococcus gordonii = experiment: Metabolic activity, Biolog phenotype microarray; conditions: S gordonii
Description: as §1, §2, §3, §4

Fusobacterium nucleatum = experiment: Metabolic activity, Biolog phenotype microarray; conditions: F nucleatum
Description: as §1, §2, §3, §4

[2] = tested on: beneficial oral bacteria and pathogenic oral bacteria; experiment: Metabolic activity, prebiotic effect over the whole panel; conditions: 48 hrs; threshold value of 2
Description: as §1, with “cells. […]” for “cells.”
All plates were incubated in an anaerobic atmosphere at 37° C. Color changes were measured spectrophotometrically at 492 nm (Thermo Scientific Multiskan Ascent) at 24 hrs and 48 hrs using the same plate at both time points. […]

O=C(O)CCC(=O)C(=O)O [Alpha-keto-glutaric acid, alpha-keto-glutaric acid]
metabolic activity, OD at 492 nm divided by OD of control (control = 1) (Streptococcus salivarius; 24 hrs): 1.1057 | metabolic activity, OD at 492 nm divided by OD of control (control = 1) (Streptococcus salivarius; 48 hrs): 1.1207 | metabolic activity, OD at 492 nm divided by OD of control (control = 1) ([1]; 24 hrs): 1.0311 | metabolic activity, OD at 492 nm divided by OD of control (control = 1) ([1]; 48 hrs): 1.2745 | metabolic activity, OD at 492 nm divided by OD of control (control = 1) (Streptococcus sobrinus; 24 hrs): 0.9463 | metabolic activity, OD at 492 nm divided by OD of control (control = 1) (Streptococcus sobrinus; 48 hrs): 0.9784 | metabolic activity, OD at 492 nm divided by OD of control (control = 1) (Porphyromonas gingivalis; 24 hrs): 0.8494 | metabolic activity, OD at 492 nm divided by OD of control (control = 1) (Porphyromonas gingivalis; 48 hrs): 0.8493 | metabolic activity, OD at 492 nm divided by OD of control (control = 1) (Veillonella parvula; 24 hrs): 1.4942 | metabolic activity, OD at 492 nm divided by OD of control (control = 1) (Veillonella parvula; 48 hrs): 2.1872 | metabolic activity, OD at 492 nm divided by OD of control (control = 1) (Actinomyces viscosus; 24 hrs): 0.9915 | metabolic activity, OD at 492 nm divided by OD of control (control = 1) (Actinomyces viscosus; 48 hrs): 1.0515 | metabolic activity, OD at 492 nm divided by OD of control (control = 1) (Streptococcus mutans; 24 hrs): 1.0330 | metabolic activity, OD at 492 nm divided by OD of control (control = 1) (Streptococcus mutans; 48 hrs): 1.0484 | metabolic activity, OD at 492 nm divided by OD of control (control = 1) (Capnocytophaga sputigena; 24 hrs): 0.6312 | metabolic activity, OD at 492 nm divided by OD of control (control = 1) (Capnocytophaga sputigena; 48 hrs): 0.8910 | metabolic activity, OD at 492 nm divided by OD of control (control = 1) (Streptococcus mitis; 24 hrs): 1.0211 | metabolic activity, OD at 492 nm divided by OD of control (control = 1) (Streptococcus mitis; 48 hrs): 1.0001 | metabolic activity, OD at 492 nm divided by OD of control (control = 1) (Prevotella intermedia; 24 hrs): 1.0787 | metabolic activity, OD at 492 nm divided by OD of control (control = 1) (Prevotella intermedia; 48 hrs): 1.1353 | metabolic activity, OD at 492 nm divided by OD of control (control = 1) (Streptococcus sanguinis; 24 hrs): 0.9629 | metabolic activity, OD at 492 nm divided by OD of control (control = 1) (Streptococcus sanguinis; 48 hrs): 1.0284 | metabolic activity, OD at 492 nm divided by OD of control (control = 1) (Tannerella forsythia; 24 hrs): 0.9714 | metabolic activity, OD at 492 nm divided by OD of control (control = 1) (Tannerella forsythia; 48 hrs): 1.0338 | metabolic activity, OD at 492 nm divided by OD of control (control = 1) (Actinomyces naeslundii; 24 hrs): 0.9093 | metabolic activity, OD at 492 nm divided by OD of control (control = 1) (Actinomyces naeslundii; 48 hrs): 0.9031 | metabolic activity, OD at 492 nm divided by OD of control (control = 1) (Streptococcus gordonii; 24 hrs): 0.9127 | metabolic activity, OD at 492 nm divided by OD of control (control = 1) (Streptococcus gordonii; 48 hrs): 0.9193 | metabolic activity, OD at 492 nm divided by OD of control (control = 1) (Fusobacterium nucleatum; 24 hrs): 0.8164 | metabolic activity, OD at 492 nm divided by OD of control (control = 1) (Fusobacterium nucleatum; 48 hrs): 1.4088 | prebiotic effect (metabolic activity) [2]: exhibited prebiotic effects
